Assay results: patent US8709385B2, “Poloxamer foamable pharmaceutical compositions with active agents and/or therapeutic cells and uses” (Foamix Ltd., priority 2008, dated 2014)

Experiment: Solubility and gelling of salicylic acid in Poloxamer 188 solution
Type: physicochemical
Conditions: 0.25 gr. and 0.50 gr. in 12.5 gr.
Text: In both vials, 1 & 2, there are 12.5 gr. of 20% Poloxamer 188/purified water stock solution (2.5 gr. Poloxamer 188+10 gr. purified water).

## O=C(O)c1ccccc1O [Salicylic acid]
  dissolution in 20% Poloxamer 188/purified water stock solution: completely dissolved
